This test addresses Human Prostanoid EP4 Receptor (Homo sapiens (Human), UniProt P35408). In words: Radioligand binding assay, agonist site of the human prostanoid EP4 receptor in transfected HEK-293 cells ([3H]PGE2). The procedure: Radioligand Binding Assay for the Evaluation of the Affinity of Compounds for the Agonist Site of the Human Prostanoid EP4 Receptor in Transfected HEK-293 Cells
Following incubation, the samples are filtered rapidly under vacuum through glass fiber filters (GF/B, Packard) presoaked with 0.3% PEI and rinsed several times with ice-cold 50 mM Tris-HCl using a 96-sample cell harvester (Unifilter, Packard). The filters are dried then counted for radioactivity in a scintillation counter (Topcount, Packard) using a scintillation cocktail (Microscint 0, Packard).

Chains of the proteins cited; added tags and fusions are not shown. Lines headed by an entry give the natural chain unless they say otherwise; changes in a name come on top.
UniProt P35408: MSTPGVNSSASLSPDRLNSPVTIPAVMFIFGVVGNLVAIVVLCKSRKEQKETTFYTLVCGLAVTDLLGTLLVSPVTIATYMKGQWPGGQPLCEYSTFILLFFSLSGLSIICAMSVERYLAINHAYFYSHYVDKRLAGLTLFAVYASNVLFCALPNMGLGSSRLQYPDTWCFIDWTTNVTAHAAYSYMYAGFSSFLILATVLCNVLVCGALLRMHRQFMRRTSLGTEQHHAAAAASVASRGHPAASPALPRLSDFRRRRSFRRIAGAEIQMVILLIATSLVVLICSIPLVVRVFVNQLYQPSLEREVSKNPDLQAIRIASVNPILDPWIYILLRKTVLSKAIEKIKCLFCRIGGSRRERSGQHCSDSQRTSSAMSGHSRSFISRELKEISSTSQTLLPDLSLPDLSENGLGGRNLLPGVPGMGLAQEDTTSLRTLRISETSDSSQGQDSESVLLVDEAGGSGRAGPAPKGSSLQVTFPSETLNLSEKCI

Among the data in patent US9676712B2, “Lactam compounds as EP4 receptor-selective agonists for use in the treatment of EP4-mediated diseases and conditions” (Cayman Chemical Company, Inc., priority 2013, dated 2017) are IC50 and Ki values, retold here.

The structures appear in SMILES notation.

As for `CC(CCCc1ccccc1)[C@H](O)/C=C/[C@H]1CCC(=O)N1CCCCCCC(=O)O` (mixture of isomers) [Example 2C, 7-((2R)-2-((3S,E)-3-hydroxy-4-methyl-7-phenylhept-1-en-1-yl)-5-oxopyrrolidin-1-yl)heptanoic acid], for the setting “read-out: hEP4 receptor binding IC50”, the IC50 (as a rule, the concentration needed to halve the response being measured) is 5.7 nM. Besides, the Ki – broadly, the dissociation constant of the complex between target and ligand, obtained from inhibition or displacement – (read-out: hEP4 receptor binding Ki) is 2.1 nM.
